The numbers were not newly measured in US4595695A, “1'-ethoxycarbonyloxyethyl ester of valproic acid, its preparation and pharmaceutical compositions containing it” (Teva Pharmaceutical Industries Ltd., priority 1983, dated 1986), which cites them from elsewhere.

The conditions of this data set: man versus dog; cited from earlier work.

Molecules are shown by their SMILES.

`CCCC(CCC)C(=O)O` [VPA, di-n-propylacetic acid]: the “VPA half-life time in man relative to dog” value was “three to eight times longer”.
